The values that follow are results of earlier work, collected in paper PMC7990704 (Nature chemical biology, 2021).

The series relates to Cdk1. The note with it: cited from earlier work.

For the compound `CCN1CCN(Cc2ccc(Nc3ncc(F)c(-c4cc(F)c5nc(C)n(C(C)C)c5c4)n3)nc2)CC1` [abemaciclib], the “activity against Cdk1 in vitro” value is recorded as “lacking potent activity”.
